Assay results as given in US6753459B2, “Transgenic plants and methods for production thereof” (National Research Council of Canada, priority 1998, dated 2004).

Tested on: Transformed tobacco plants containing the pJH 121 construct
Experiment: NAM spray of transformed tobacco plants containing pJH121 (conditionally lethal phenotype)
Type: in vivo
Settings: 200 ug/mL NAM with 0.1% Tween 20, sprayed to runoff
Experimental: Transformed tobacco plants containing the pJH 121 construct described above are recovered and tested using standard analysis to determine the presence of the inserted vector. […] A solution containing 200 ug/mL of NAM with 0.1% Tween 20 is prepared. Plants were sprayed to runoff using a pressurized sprayer. […] Non-transformed plants are unaffected by the treatment.

NC(=O)Cc1cccc2ccccc12 [NAM, napthalene acetamide]
visual phenotype of transformed plants (2 days after spraying): leaves are drooping and the leaf margins curling | visual phenotype of transformed plants (within 5 days): leaves are twisted and the plant shows typical auxin toxicity
